Antibody variant affinities, Ab-14 light chain, assay B

Target: peptide PDVDLGDISGINAS, taken from heptad repeat 2 (HR2) of SARS-CoV-2 spike.

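The starting antibody came from a phage panning campaign against this peptide. These sequences belong to a second round, designed from the earlier measurements on random variants of the parent. Group labels follow the data file (Ctrl: baseline library sampled from a position-specific scoring matrix, with some repeated check sequences; GP: Gaussian process model; HC: hill climbing; Gen: genetic algorithm; Gibbs: Gibbs sampling; a sequence that several methods proposed may carry one label only). Affinity was read by AlphaSeq, a pooled yeast mating assay with surface-displayed partners. Pairs that bind mate more often; barcode pairs of the diploids are counted by sequencing. Read counts were normalised to the haploid input and turned into Kd by a linear fit to BCL2-family pairs of known affinity, for each replicate. There are six technical replicates.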

Ab-14 is the parent antibody, in scFv form: VH, then a (GGGGS)3 linker, then VL. The heavy chain is unchanged in all variants.
VH: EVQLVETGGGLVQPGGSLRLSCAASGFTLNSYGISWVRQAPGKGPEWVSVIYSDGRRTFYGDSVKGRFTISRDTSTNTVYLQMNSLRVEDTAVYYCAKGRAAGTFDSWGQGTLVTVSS
VL: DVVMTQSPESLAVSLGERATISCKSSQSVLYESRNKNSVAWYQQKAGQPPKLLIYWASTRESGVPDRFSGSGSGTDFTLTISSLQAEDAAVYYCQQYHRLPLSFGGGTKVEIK

The parent's light chain CDRs are KSSQSVLYESRNKNSVA, WASTRES, QQYHRLPLS; each variant's own CDRs replace them letter for letter. Variants here have at most six changes. Values are apparent Kd, the geometric mean of the replicates that gave a signal; lower means stronger binding. Where no diploid with the target was found in any replicate, the entry reads "not detected": below detection, most likely a poor binder, though not proof of it. The authors averaged sequences with at least three values out of six and counted those with two or fewer as poor binders. A sequence that the file lists under several names has all its replicates pooled. The parent sequence was in this pool as ten entries: three were never detected, three once, and four in most replicates, with averages from 2.2 nM to 240 nM. Three control strains display no target. For all light chain designs, 4% of the pairings with them gave a signal, with a median of 430 nM and one signal in twenty below 38 nM, so weak values seen in few replicates may be background. Also given: how often the same scFv was detected with the empty control strains. A sequence measured in both rounds can read differently, since the two assays cover different ranges.

CDR-L1,CDR-L2,CDR-L3,group,Kd,replicates with signal,signal with controls
KQSQSVLYESRNKNNVA,DASTRMS,QQYHRLPLS,GP_HC,300 pM,6 of 6,0 of 18
QSSQSVLRESRYKNSVA,WASTRES,QQVHRLPLS,Ctrl,not detected,0 of 6,0 of 18
KLSQSVLYESRMKNSVA,HASTRES,QQYHRLPLS,GP_Gen,1.1 nM,6 of 6,1 of 18
KSSQSVLYESRNKNSVA,WESTRES,QQYHRLPLS,Ctrl,130 nM,2 of 6,1 of 18
KSSQSVLYESRNKNSVA,WASTRCS,QQYHRLPLS,Ctrl,19 nM,6 of 6,2 of 18
KVYPSYLYESRNKNAVA,QASTRES,QQYHRLPLS,GP_HC,430 pM,6 of 6,0 of 18
KLEQSVLYESRNKNSVA,NASTRED,QQYHRLPLS,GP_Gen,710 pM,6 of 6,0 of 18
KSSPSYLYESRNKNSVA,EASTREQ,QQYHRLPLS,GP_HC,730 pM,6 of 6,1 of 18
KLRQSTLYESRNQNSVA,WASTRES,QQYHRLPLS,GP_HC,2.8 nM,6 of 6,0 of 18
KADQGALYESRNKNSVA,GASTRES,QQYHRLPLS,GP_HC,480 pM,6 of 6,2 of 18
KMEQGVPYESRNKNSVA,GASTRES,QQYHRLPLS,GP_HC,1.9 nM,6 of 6,0 of 18
KLPQSHLYESRNKNSVA,GASTRES,QQYHRLPLS,GP_Gen,1.3 nM,6 of 6,2 of 18
KSSQSVLYESRVKNSVA,WASTRES,QQYHRLPLG,Ctrl,not detected,0 of 6,0 of 18
KSSQNVLYESRNKNSVN,WASTREA,QQYHRLPLS,Ctrl,not detected,0 of 6,0 of 18
KSSQRVLYTSRNKNSVA,RASTRES,QQYHRLPLS,Ctrl,710 nM,1 of 6,0 of 18
KSGTSVLYESRNKNSVA,GASTRES,QQYHRLPLS,GP_HC,4.8 nM,6 of 6,0 of 18
KLPQSHLYESRNKNSVA,SASTRES,QQYHRLPLS,GP_Gen,650 pM,6 of 6,0 of 18
KQSQSVLFENRNKNSVA,WASTRES,QQYHRWPLS,Ctrl,not detected,0 of 6,0 of 18
KSSQSDLGNSRQKNSVA,WASVRES,QQYHRNPLS,Ctrl,not detected,0 of 6,0 of 18
HLSWSQLYESRNKNSVA,NASTRES,QQYHRLPLS,GP_HC,660 pM,6 of 6,3 of 18
KLSQSVGYESRNKNNVA,NASTRES,QQYHRLPLS,GP_Gen,820 pM,6 of 6,1 of 18
HQSSSVLYESRNKNSVA,NGSTREV,QQYHRLPLS,GP_HC,600 pM,6 of 6,2 of 18
KSSQSVLYESRNKASVA,WASTRES,QQYHYLPLS,Ctrl,120 nM,4 of 30,4 of 90
KFMQSVLYETRNKQSVA,AASTRES,QQYHRLPLS,Ctrl,4.3 nM,6 of 6,0 of 18
KSSQSVIYESRNKNSVA,WASTREE,QQYARLPLS,Ctrl,270 nM,1 of 6,1 of 18
KSSQEVTYESDNKYSVA,WASTRES,QSYHRLPLS,Ctrl,2.8 nM,5 of 6,0 of 18
KLQQQWLYESRNKNSVA,SASTRSS,QQYHRLPLS,GP_HC,530 pM,6 of 6,0 of 18
KSDQSDLYESRNKNSVA,WASTRES,FQYHREPLS,Ctrl,260 nM,2 of 6,0 of 18
KSSQPVLYEFENKNSVA,AASTRES,QQYHRLPLS,Ctrl,5.3 nM,6 of 6,2 of 18
KQSQSGLYEWRNKNSVA,DASTRES,QQYHRLPLS,GP_HC,1.4 nM,6 of 6,2 of 18
KSSQSVLDESRNKNSVA,YASTRES,QFYHMLPLS,Ctrl,4.8 nM,1 of 6,0 of 18
KLSQSNLYESRNKNSVA,QASTRES,QQYHRLPLS,GP_Gen,690 pM,6 of 6,2 of 18
KLSQSQLYESRNFNSVA,NASQRES,QQYHRLPLS,GP_Gen,2.5 nM,6 of 6,1 of 18
KLYQSHLYESRNKNSVA,NASTRLS,QQYHRLPLS,GP_Gen,1.8 nM,6 of 6,1 of 18
KFSQSVLYESRTKNGVA,GASTRES,QQYHRLPLS,GP_HC,3.4 nM,6 of 6,0 of 18
KLSQSDLYQSRNKNSVA,NASTRES,QQYHRLPLS,GP_Gen,1.7 nM,6 of 6,0 of 18
KLSQSVLYESRNKNSVA,HASQRES,QDYHRLPLS,GP_Gen,1.4 nM,6 of 6,1 of 18
KLSLSVLMESRNKNSVA,NASTRES,QQYHRLPLS,GP_HC,20 nM,6 of 6,1 of 18
KSSQSVLYESHNKNSVA,SASTRES,QQYHRLPLS,Ctrl,4.7 nM,6 of 6,1 of 18
KASQSVLYESRVKNSVA,EASMRES,QQYHRLPLS,GP_Gibbs,5.2 nM,6 of 6,0 of 18
KLSQSVLYESRNKNSVA,DAETRES,QQYHRLPLS,GP_Gen,510 pM,6 of 6,0 of 18
HLSWSVLYESRNKNSVA,NASTRES,QQYHRLPLN,GP_HC,1.5 nM,6 of 6,0 of 18
HSSPSVLYESRNKNSVA,EASTRES,QQYHRLPLS,GP_HC,480 pM,6 of 6,0 of 18
KLSQSEGYESRNKNSVA,EASTRES,QQYHRLPLS,GP_Gen,1.1 nM,6 of 6,2 of 18
KQSMSVLYESRNKNSMA,WASTRES,QQYHRLPLS,Ctrl,860 nM,2 of 6,0 of 18
KSSQPVLIESRNKNSVA,WASTRES,QQYHRLPLS,Ctrl,130 nM,5 of 6,0 of 18
KLQGSELYESRNKNSVA,EASTRES,QQYHRLPLS,GP_Gen,1.7 nM,6 of 6,0 of 18
KSSQSVLYESRDKNSVA,WASTRES,FQYHHLPLS,Ctrl,200 nM,2 of 6,0 of 18
KSSQSVSYESTNENSVA,WATTREH,QGYHRLPLS,Ctrl,not detected,0 of 6,0 of 18
KFEQSDLYESRNKNSVA,NASTRES,QQYHRLPLS,GP_Gen,510 pM,6 of 6,3 of 18
KSSQSVLYESRNKNSVA,NASTREF,QQYHRLPLS,Ctrl,30 nM,6 of 6,0 of 18
KSSQSDLMESRNKNSVA,WASTRES,YQYHRLPLS,Ctrl,not detected,0 of 6,0 of 18
KVKQSVLYESRNKNSVA,EASTRES,QQYHRLPLS,GP_Gen,not detected,0 of 6,0 of 18
KSSQSVLYESRNPNSVA,HASTRES,QQYNRLPLS,Ctrl,240 pM,6 of 6,0 of 18
KYSQSVLYESRNKNSVA,NASTRES,QQYHRLPLS,GP_Gen,580 pM,6 of 6,1 of 18

Repeated from above, the 6 best binders with a signal in all replicates:

CDR-L1,CDR-L2,CDR-L3,group,Kd,replicates with signal,signal with controls
KSSQSVLYESRNPNSVA,HASTRES,QQYNRLPLS,Ctrl,240 pM,6 of 6,0 of 18
KQSQSVLYESRNKNNVA,DASTRMS,QQYHRLPLS,GP_HC,300 pM,6 of 6,0 of 18
KVYPSYLYESRNKNAVA,QASTRES,QQYHRLPLS,GP_HC,430 pM,6 of 6,0 of 18
HSSPSVLYESRNKNSVA,EASTRES,QQYHRLPLS,GP_HC,480 pM,6 of 6,0 of 18
KADQGALYESRNKNSVA,GASTRES,QQYHRLPLS,GP_HC,480 pM,6 of 6,2 of 18
KLSQSVLYESRNKNSVA,DAETRES,QQYHRLPLS,GP_Gen,510 pM,6 of 6,0 of 18

The measurements come from Li et al. 2023 (doi:10.1038/s41467-023-39022-2) through the FLAb antibody collection.